Our source for the analgesic activity values is patent US6784186B1 (priority 1998, dated 2004).

The nature of assay [1]: Mouse analgesia test of Hendershot and Forsaith.
Assay [2] is described as follows: Rat inflamed paw test of Randall and Selitto.
Setting [3] is: low subcutaneous or intraperitoneal doses, 10-300 μg/kg.

As for N-methylnalorphninium iodide, the analgesic activity entry in assay [1] (setting [3]) and in assay [2] (setting [3]) was “showed analgesic activity” throughout.
As to N-allylmorphinium iodide, the analgesic activity result in assay [1] (doses of 10 mg/kg) and in assay [2] (doses of 10 mg/kg) was “inactive” throughout.
Take “S-methyllisothiocarbamoyl norheroin iodide”: the analgesic activity entry in assay [1] (doses of 1-3 mg/kg) and in assay [2] (doses of 1-3 mg/kg) was “active” each time.
